Experimental data taken from patent publication US20040018593A1 (published 2004).

Chains of the proteins cited; added tags and fusions are not shown. A line that says so, or that is headed by a name, gives the form on record, which may keep a tag or linker.
RELP/human IgG1 Fc fusion protein, one chain, as listed by the source limits assumed: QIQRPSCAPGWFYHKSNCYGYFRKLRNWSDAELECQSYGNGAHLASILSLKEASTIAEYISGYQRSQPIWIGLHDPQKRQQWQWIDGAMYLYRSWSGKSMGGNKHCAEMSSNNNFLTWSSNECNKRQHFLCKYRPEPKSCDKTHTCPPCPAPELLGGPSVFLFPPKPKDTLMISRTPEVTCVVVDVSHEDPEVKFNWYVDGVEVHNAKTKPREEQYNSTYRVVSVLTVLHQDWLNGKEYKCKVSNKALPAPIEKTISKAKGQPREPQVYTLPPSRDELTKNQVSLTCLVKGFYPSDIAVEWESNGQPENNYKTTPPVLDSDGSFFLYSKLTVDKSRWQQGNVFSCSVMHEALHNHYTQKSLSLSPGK

Biological target: T1, RELP/human IgG1 Fc fusion protein
T1 construct: Secreted from SP2/0 cells and purified on protein A. Coated at 10 ug/mL on EIA plates; also called RELP fusion protein; RELP-Fc fusion protein
Experiment: solid phase EIA, hybridoma supernatant on coated RELP fusion protein
Description: To assess serum titers or supernatant activity, solid phase EIA assays were performed as follows: RELP fusion protein, human Fe or cA2 IgG1 Fe fusion protein (negative construct control) were coated at 10 μg/mL in 10 mM carbonate buffer, pH 9.6 on to 96-well EIA plates (Nunc) and incubated for overnight at 4° C. The plates were then washed three times in 0.15 M saline with 0.02% v/v Tween 20, the wells were then blocked with 1% (w/v) BSA (Sigma) in PBS, 200 μL/well for 1 hour at 37° C. Plates were used immediately or frozen at −20° C. for future use.
To screen the mouse immune sera for titers or growth positive hybridomas for specific reactivity, the diluted sera or undiluted supernatants from the growth positive hybridomas were incubated on all sets of coated plates at 50 μL/well at 37° C. for 1 hour. The plates were washed and then probed with 50 μL/well HRP-labeled goat anti-mouse IgG Fc specific antibody (lot #105H4819, Sigma) diluted 1:20,000 in 1% BSA-PBS for 30 minutes at 37° C. The plates were again washed and 100 μL/well of citrate-phosphate substrate solution (0.1M citric acid, 0.2M sodium phosphate, 0.01% H₂O₂, 1 mg/mL OPD (Sigma) was added for approximately 15 minutes at RT. The reaction was stopped by the addition of 25 μL/well, 4N H₂SO₄. The OD's were read at 490 nm by an automated plate spectrophotometer (Titertek).

binding result	Binder
binds	CNTO 4164 (antibody, IgG1, V domains shown, Tested as undiluted hybridoma supernatant; also called anti-RELP Mab; RELP specific mab) VH: EIQLQQSGTELVRPGALVKLSCKASGFNIRDYYINWLKQRPEQGLEWIGWIDPENDDTVFDPKFQDKAILTADTSSNTVCLQLSSLTSEDTSVYYCAIKGNYYDGGAFANWGQGTLVTVSA VL: DIQLTQSPASLSVSVGETVTITCRASENIYSNFAWYQQTQGKSPQLLVHGATSLADGVPSRFSGSGSGTQYFLRIDSLQSEDLGIYYCQHFWNTPYTFGGGTKLEIK
binds	CNTO 338 (antibody, IgG1, V domains shown, Tested as undiluted hybridoma supernatant; As printed they begin with Met and seem to include the leader peptide, but no cleavage site is stated; also called anti-RELP Mab; RELP specific mab) VH: EVQLQQSGAELVRPGASVRLSCTVSGFNIEDDYIHWVKQRPEQGLEWIGWIDPETGNTQYASKFQGKATATSDTSSSTVYVHLSSLTSEDTAVYYCTTTSYYGSDEFVYWGQGTLVTVSA VL: DIVLTQSPATLSVTPGDGVSLSCRASQSINNNLHWYHQKSHGSPRLLIKYSSQSISGIPSRFSGSGSGTDFTLTINNVETEDFGLYFCQQSNSWPLTFGAGTKLELK
